Measured values reported in patent US20080161247A1, “Synergistic composition for modulating activity of substrate analogs for NAD+, NADP+, NADH or NADPH dependent enzymes and process thereof” (priority 2006, published 2008).
Read-outs that look alike come from different tables or passages of the source.

The chains behind the UniProt entries cited, without tags or fusion partners.
UniProt Q9BH77, entry or part of it: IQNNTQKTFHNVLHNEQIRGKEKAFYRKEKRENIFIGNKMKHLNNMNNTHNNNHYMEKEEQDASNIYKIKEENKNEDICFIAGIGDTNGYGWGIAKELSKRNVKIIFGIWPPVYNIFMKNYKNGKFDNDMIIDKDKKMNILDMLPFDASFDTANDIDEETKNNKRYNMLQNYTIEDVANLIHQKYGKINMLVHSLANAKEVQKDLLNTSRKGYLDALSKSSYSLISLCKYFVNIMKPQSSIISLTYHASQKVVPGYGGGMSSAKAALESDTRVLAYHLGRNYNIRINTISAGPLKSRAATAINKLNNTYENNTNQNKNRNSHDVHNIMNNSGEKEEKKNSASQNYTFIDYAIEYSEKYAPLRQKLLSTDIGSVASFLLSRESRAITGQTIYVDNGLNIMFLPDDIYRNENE

Legend:
PfENR [1] = molecular target: T1, PfENR (Plasmodium falciparum, UniProt Q9BH77); format: binding
T1 construct: The overexpression of PfENR was carried out [22]; made in house
Protocol: Binding studies of [^3H] […] Briefly, for gel filtration chromatography, 2 ml Sephadex G-25 column was packed and equilibrated with the reaction buffer. For each run 50 μl of the reaction mixture was loaded and 20 fractions of 100 μl were collected at 0.25 ml/min flow rate. All the fractions were spotted on Whatman 3 filter paper and dried before taking the counts. In the filter binding assay method, the reaction mixtures were directly applied on the activated Polyvinylidene difluoride (PVDF) membrane fixed in a filtration assembly. The filters were washed with 200 μl of reaction buffer and dried. Dried filters were transferred to vials containing 5 ml scintillation fluid and the radioactivity measured using a Hewlett Packard liquid scintillation counter.
To check the binding of [^3H] […] The concentration of [^3H]
[^3H] […] (FIG. 4d) Double reciprocal plot of the same data is shown in the inset.
The binding constants for the above experiments were determined from saturation plots and by Scatchard plot or double reciprocal plot using equation 2a and 2b described under evaluation section.

PfENR [2] = molecular target: T1, PfENR; format: biochemical
Protocol: The reaction was started by the addition of 50 nM of PfENR.
The reaction was monitored at 340 nm and the formation of (NAD^+) was plotted as a function of time using equation 3 to get the dissociation constant by non-linear regression analysis of the data.
Progress curves gave the value of kobs and the k5 or association rate constants were determined by fitting the values of kobs with experimentally determined k6 values in equation 4.
The relationship between Ki, k5, k6 and kobs is described by equation 4.
The overall inhibition constant Ki* is calculated by equation 5.

(−) epigallocatechin gallate [EGCG]
Kd (PfENR [1]; read-out: Kd of EGCG in the presence of triclosan, Scatchard plot, 10 μM triclosan): 77.6 ± 5.3 nM
Kd (PfENR [1]; read-out: dissociation constant of [3H]EGCG with PfENR, Scatchard plot, absence of triclosan): 512 ± 28.8 nM
Kd (PfENR [1]; read-out: dissociation constant of [3H]EGCG with PfENR, saturation kinetics, absence of triclosan, filter binding): 438 ± 8.2 nM
Association rate constant k5 of triclosan (PfENR [2]; triclosan with PfENR in presence of the catechin): 8.4 ± 0.24 [10^−3]s^−1
Dissociation rate constant [k6] of k5 of TCL, [10^−5] s^−1 (PfENR [2]; triclosan, dilution method, in presence of the catechin named in the row): 1.6 ± 0.078 [10^−5] s^−1
